Experimental data from US8633183B2 (priority 2010, dated 2014).

Sequences of proteins named here, by UniProt entry; tags and fusion partners are left off.
UniProt P42336, whole entry, looked up: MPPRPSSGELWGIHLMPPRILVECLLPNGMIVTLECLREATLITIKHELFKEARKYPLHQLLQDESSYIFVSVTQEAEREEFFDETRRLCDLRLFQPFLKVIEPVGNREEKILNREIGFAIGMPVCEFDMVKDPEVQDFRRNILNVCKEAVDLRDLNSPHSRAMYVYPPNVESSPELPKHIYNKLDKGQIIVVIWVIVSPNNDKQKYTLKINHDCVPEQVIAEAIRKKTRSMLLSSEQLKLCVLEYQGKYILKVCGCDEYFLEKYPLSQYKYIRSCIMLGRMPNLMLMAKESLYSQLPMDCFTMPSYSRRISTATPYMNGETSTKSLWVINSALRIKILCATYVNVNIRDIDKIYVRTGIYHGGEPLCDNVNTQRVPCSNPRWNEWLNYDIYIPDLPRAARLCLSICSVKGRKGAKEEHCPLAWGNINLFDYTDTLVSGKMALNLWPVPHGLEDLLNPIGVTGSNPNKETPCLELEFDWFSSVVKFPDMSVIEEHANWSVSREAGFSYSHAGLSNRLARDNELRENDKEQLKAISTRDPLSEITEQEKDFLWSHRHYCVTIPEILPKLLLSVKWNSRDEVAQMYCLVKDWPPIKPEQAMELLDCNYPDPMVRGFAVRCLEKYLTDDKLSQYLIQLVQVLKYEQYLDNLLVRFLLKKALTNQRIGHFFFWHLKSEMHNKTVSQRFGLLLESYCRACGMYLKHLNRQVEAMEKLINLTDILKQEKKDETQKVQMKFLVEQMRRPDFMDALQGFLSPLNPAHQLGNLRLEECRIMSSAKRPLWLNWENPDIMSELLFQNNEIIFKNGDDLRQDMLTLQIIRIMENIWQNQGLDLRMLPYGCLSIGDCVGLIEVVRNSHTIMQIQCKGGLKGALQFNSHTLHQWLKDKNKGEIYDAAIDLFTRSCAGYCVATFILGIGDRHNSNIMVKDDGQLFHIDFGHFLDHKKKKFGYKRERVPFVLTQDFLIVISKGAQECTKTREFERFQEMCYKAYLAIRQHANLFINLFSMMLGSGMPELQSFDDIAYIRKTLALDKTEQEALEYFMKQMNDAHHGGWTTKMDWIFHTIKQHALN

Each compound was assayed against PI3Kalpha (Homo sapiens (Human), UniProt P42336). Settings: read-out: IC50 PI3K.

Structure (SMILES) | IC50
CCc1ncnc(-c2ccc(C(=O)N3CCC(C)(O)CC3)c(C)c2)c1C#Cc1ccc(N)nc1 [Example E-122] | 0.0628 µM
CCc1ncnc(-c2ccc(C(=O)N3CCC(N(C)C)C3)c(C)c2)c1C#Cc1ccc(N)nc1 (stereo not shown) [Example E-125] | 0.161 µM
CCc1ncnc(-c2ccc(C(=O)N3CCC(N4CCCC4)CC3)c(C)c2)c1C#Cc1ccc(N)nc1 [Example E-126] | 0.195 µM
CCc1ncnc(-c2cc(F)c(C(=O)N3CCN(CCNS(C)(=O)=O)CC3)c(F)c2)c1C#Cc1ccc(N)nc1 [Example E-152] | 0.0678 µM
CCc1ncnc(-c2cc(F)c(C(=O)N3CCn4ccnc4C3)c(Cl)c2)c1C#Cc1ccc(N)nc1 [Example E-155] | 0.0155 µM
CCc1ncnc(-c2cc(F)c(C(=O)N(C)CCN(C)C)c(F)c2)c1C#Cc1ccc(N)nc1 [Example E-171] | 0.358 µM
CCc1ncnc(-c2cc(F)c(C(=O)N3CCC(F)(F)CC3)c(F)c2)c1C#Cc1ccc(N)nc1 [Example E-173] | 0.164 µM
